In the assay the test system is VEGF-induced retinal vascular leakage. The experiment in a line: VEGF-induced vascular leakage in a rabbit model of blood-retinal barrier breakdown (ocular fluorophotometry). As to conditions: TA 135 μg, single intravitreal injection Day 0, 500 ng rhVEGF165 Day 5, fluorophotometry Day 7.

The structures appear in SMILES notation.

As to `CC1(C)O[C@@H]2C[C@H]3[C@@H]4CCC5=CC(=O)C=C[C@]5(C)[C@@]4(F)[C@@H](O)C[C@]3(C)[C@]2(C(=O)CO)O1` [TA, triamcinolone acetonide], the “Inhibition of retinal vascular leakage” value came to 27%.
